B1: ATP-dependent DNA helicase Q5 (Homo sapiens), O94762-1 (parent)
chain: MSSHHTTFPFDPERRVRSTLKKVFGFDSFKTPLQESATMAVVKGNKDVFVCMPTGAGKSLCYQLPALLAKGITIVVSPLIALIQDQVDHLLTLKVRVSSLNSKLSAQERKELLADLEREKPQTKILYITPEMAASSSFQPTLNSLVSRHLLSYLVVDEAHCVSQWGHDFRPDYLRLGALRSRLGHAPCVALTATATPQVQEDVFAALHLKKPVAIFKTPCFRANLFYDVQFKELISDPYGNLKDFCLKALGQEADKGLSGCGIVYCRTREACEQLAIELSCRGVNAKAYHAGLKASERTLVQNDWMEEKVPVIVATISFGMGVDKANVRFVAHWNIAKSMAGYYQESGRAGRDGKPSWCRLYYSRNDRDQVSFLIRKEVAKLQEKRGNKASDKATIMAFDALVTFCEELGCRHAAIAKYFGDALPACAKGCDHCQNPTAVRRRLEALERSSSWSKTCIGPSQGNGFDPELYEGGRKGYGDFSRYDEGSGGSGDEGRDEAHKREWNLFYQKQMQLRKGKDPKIEEFVPPDENCPLKEASSRRIPRLTVKAREHCLRLLEEALSSNRQSTRTADEADLRAKAVELEHETFRNAKVANLYKASVLKKVADIHRASKDGQPYDMGGSAKSCSAQAEPPEPNEYDIPPASHVYSLKPKRVGAGFPKGSCPFQTATELMETTRIREQAPQPERGGEHEPPSRPCGLLDEDGSEPLPGPRGEVPGGSAHYGGPSPEKKAKSSSGGSSLAKGRASKKQQLLATAAHKDSQSIARFFCRRVESPALLASAPEAEGACPSCEGVQGPPMAPEKYTGEEDGAGGHSPAPPQTEECLRERPSTCPPRDQGTPEVQPTPAKDTWKGKRPRSQQENPESQPQKRPRPSAKPSVVAEVKGSVSASEQGTLNPTAQDPFQLSAPGVSLKEAANVVVKCLTPFYKEGKFASKELFKGFARHLSHLLTQKTSPGRSVKEEAQNLIRHFFHGRARCESEADWHGLCGPQR

In the assay the parent is B1. As to conditions: with rpb1_human POLR2A.
On to L556E;L602E, for which the “effect of a mutation on the interaction” value was “disrupting interaction strength”.

Turning to W504A;F507A, the “effect of a mutation on the interaction” value is “disrupting interaction strength”.

In the case of K603E, the “effect of a mutation on the interaction” value is on record as “disrupting interaction strength”.

On to K598E, for which the “effect of a mutation on the interaction” value was “disrupting interaction strength”.

With H552A, the “effect of a mutation on the interaction” value is “decreasing interaction strength”.

As to F507A;Y508A, the “effect of a mutation on the interaction” value is “disrupting interaction strength”.

In the case of W504A;F507A;Y508A, the “effect of a mutation on the interaction” value was “disrupting interaction strength”.

For R515E, the “effect of a mutation on the interaction” value is reported as “disrupting interaction strength”.

On to K516E, for which the “effect of a mutation on the interaction” value is given as “decreasing interaction strength”.

With W504A, the “effect of a mutation on the interaction” value is recorded as “disrupting interaction strength”.

As for W504A;Y508A, the “effect of a mutation on the interaction” value was “disrupting interaction strength”.

As for L602E, the “effect of a mutation on the interaction” value is recorded as “disrupting interaction strength”.

With L556E, the “effect of a mutation on the interaction” value was “disrupting interaction strength”.

Y508A: the “effect of a mutation on the interaction” value is listed as “disrupting interaction strength”.

Source of the values: IntAct's records for PubMed 23748380.
